Target: hERG channel (Homo sapiens, UniProt Q12809)
Assay: hERG voltage clamp assay in hERG-expressing cultured cells
Format: cell-based
Settings: relative to domperidone

Sequences of proteins named here, by UniProt entry; tags and fusion partners are left off. A change or cut given only in a name is not applied to a line headed by its entry.
UniProt Q12809: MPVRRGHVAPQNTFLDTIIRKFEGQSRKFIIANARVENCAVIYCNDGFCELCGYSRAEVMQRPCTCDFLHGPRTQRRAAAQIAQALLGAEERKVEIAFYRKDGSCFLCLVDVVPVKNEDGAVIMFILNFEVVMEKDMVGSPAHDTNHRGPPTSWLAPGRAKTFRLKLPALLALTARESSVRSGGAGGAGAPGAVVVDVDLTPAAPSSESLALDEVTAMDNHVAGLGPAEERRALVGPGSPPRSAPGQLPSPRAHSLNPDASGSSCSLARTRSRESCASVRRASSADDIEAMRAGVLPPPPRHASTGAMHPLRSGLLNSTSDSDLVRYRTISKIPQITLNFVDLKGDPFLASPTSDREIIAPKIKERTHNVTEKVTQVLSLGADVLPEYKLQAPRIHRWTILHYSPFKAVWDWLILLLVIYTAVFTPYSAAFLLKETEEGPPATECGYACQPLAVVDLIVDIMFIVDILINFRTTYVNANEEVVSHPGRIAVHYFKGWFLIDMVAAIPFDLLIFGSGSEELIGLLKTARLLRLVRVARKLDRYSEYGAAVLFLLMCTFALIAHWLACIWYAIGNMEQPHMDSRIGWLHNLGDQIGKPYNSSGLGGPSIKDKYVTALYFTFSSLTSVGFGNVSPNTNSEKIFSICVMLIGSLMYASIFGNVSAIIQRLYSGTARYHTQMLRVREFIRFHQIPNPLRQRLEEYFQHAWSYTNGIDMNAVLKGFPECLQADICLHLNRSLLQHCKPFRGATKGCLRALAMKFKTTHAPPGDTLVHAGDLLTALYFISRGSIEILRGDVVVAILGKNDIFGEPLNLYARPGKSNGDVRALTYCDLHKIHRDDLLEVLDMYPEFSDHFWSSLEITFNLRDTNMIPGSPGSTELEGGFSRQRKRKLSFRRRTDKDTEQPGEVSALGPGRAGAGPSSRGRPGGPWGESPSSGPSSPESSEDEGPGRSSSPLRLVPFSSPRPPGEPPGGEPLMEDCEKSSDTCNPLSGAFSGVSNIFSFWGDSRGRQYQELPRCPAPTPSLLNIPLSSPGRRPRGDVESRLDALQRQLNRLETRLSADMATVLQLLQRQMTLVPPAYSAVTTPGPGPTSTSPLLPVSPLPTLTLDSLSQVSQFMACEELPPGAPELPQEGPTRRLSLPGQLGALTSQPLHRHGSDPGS

SMILES: CS(=O)(=O)c1ccc2c(c1)N(CCCN1CCC(C(=O)O)CC1)c1ccccc1S2 [Metopimazine-Acid, metopimazine acid]
- fold less potent than domperidone to inhibit hERG channels: > 100 fold
